Like-named read-outs stand apart in the source and are kept apart here.
How the values were obtained:
in vivo = details: male, Sprague-Dawley, rat, po, 60 mg/kg
Experimental: All animals used in this study were adult rats (at least 2.5 months of age).
Male Sprague-Dawley rats having a bodyweight between 250-300 g were randomly assigned to two groups. […] The chemicals were suspended in sesame oil and administrated by single oral gavage at 2 ml/kg. All rats were fasted overnight with free access to water before oral administration of the testing compositions. On the day of dosing, the blood samples were collected at 0 min (prior to dosing), and 0.25, 0.5, 1, 2, 4, 6, 8, and 24 hr post-dosing.
Blood samples were collected from rat jugular veins and transferred into tubes coated with sodium heparin. To obtain plasma, the blood samples were centrifuged at 2,500×g for 15 min at 4° C. and the supernatants were collected and kept frozen in a freezer at −80° C., until they were analyzed.
The plasma concentration of donepezil was determined by LC/MS. The chromatographic separation was carried out on a 5 μm EVO C8 100 Å LC column (100×4.6 mm, Kinetex®). The mobile phase was 0.1% formic acid in water and acetonitrile:methanol=8:2 set as gradient. Flow rate used was 0.3 mL/min. Column temperature was maintained at 40° C. and the injection volume was 30 μL.
The pharmacokinetic parameters were calculated using non-compartmental analysis (NCA) with WinNonlin to assess the systemic exposure of donepezil in rats.

[1] = mice
Experimental: The testing compounds were administered to mice either through intraperitoneal (i.p.) injection or oral gavage before analyzing blood glucose levels.
For the acute study, two cohorts of mice were used.
For repeated-dose study, mice were randomly assigned into five groups as listed below. • Group 1: Vehicle control • Group 2: Clz (3 mg/kg) • Group 3: Clz:NA 1:1 salt (4.13 mg/kg) • Group 4: Clz (10 mg/kg) • Group 5: Clz:NA 1:1 salt (13.77 mg/kg)
The night before blood glucose levels were measured, the mice were fasted. Blood glucose levels were measured with a portable glucose meter (Contour® Plus, Bayer AG, Leverkusen, Germany) After waiting for 60 min, the treatments indicated above were administered. FIG. 75 illustrates the experimental design of this study. […]
The night before the glucose tolerance test, the mice fasted. Blood glucose levels were measured in whole blood that was collected from the mouse's tail vein. Glucose levels were measured with a portable glucose meter (Contour® Plus, Bayer AG, Leverkusen, Germany), with the measurement occurring 60 min after the mice were dosed with the treatments indicated above Immediately following the glucose measurement, all mice were subjected to a glucose tolerance test, which involved an intraperitoneal challenge injection of 1 g/kg of glucose, followed by measuring blood glucose levels at 0, 30, 60 and 120 minutes.

[2] = GTT

**Q.** Which Cmax (in vivo) does the source give for `CN1CCN(C2=Nc3cc(Cl)ccc3Nc3ccccc32)CC1` [clozapine, reference compound] here?
**A.** Its Cmax is 191 ng/mL.

**Q.** For `Cc1cc2c(s1)Nc1ccccc1N=C2N1CCN(C)CC1.O=C(O)c1cccnc1` [olanzapine:nicotinic acid 1:1 salt], which “fasting blood glucose level compared to vehicle control” value ([1]; acute i.p. injection, olanzapine 5 and 10 mg/kg or salt 6.97 and 13.94 mg/kg) is on record?
**A.** Its value is “blood glucose levels comparable to those of the vehicle control group”.

**Q.** What about the “fasting blood glucose level compared to vehicle control” value ([1]; acute oral, olanzapine 10 mg/kg, NA 3.94 mg/kg, mixture, or salt 13.94 mg/kg) of the same compound?
**A.** The value was “no to moderate impacton elevated fasting blood glucose levels”.

**Q.** And the “Blood glucose level compared to vehicle after 120 min” value ([2]; acute oral, olanzapine 10 mg/kg)?
**A.** Its value is 1.5.

**Q.** What about the “Blood glucose level compared to vehicle after 120 min” value ([2]; dosage of olanzapine 5 mg/kg (Table 23)) of the same compound?
**A.** Its value is 2.21.

**Q.** And the “Blood glucose level compared to vehicle after 120 min” value ([2]; dosage of olanzapine 10 mg/kg (Table 23))?
**A.** The value was 2.75.
